Screens as filed in PubChem BioAssay.
Compounds with a hit are over-represented: about 2.1% of the library has one in this group of screens.
Rev-erbA mod: modulators of Rev-erb alpha DNA binding, primary screen, biochemical, FITC-DNA, fluorescence polarization, uHTS. Nuclear receptor subfamily 1 group D member 1 (Homo sapiens), P20393. Rev-erbα–FITC-DNA binding, 90 min. activity, % at 10 µM. actives 0.79% (n = 370,000). AID 1259318, 2017;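 active means activity above about 14%, limit read from the data; passing the limit was not always enough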;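 further: 0% = DMSO wells with 35 nM protein and 100% = DMSO wells with 750 nM protein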
PDI turbidity: inhibitors of human PDI, primary screen, biochemical, turbidity, single point, plate reader | AID 588391, 2011 | actives 0.052% (n = 350,000) | Protein disulfide-isomerase (Homo sapiens), P07237 | inhibition, % at 10 µM | PDI insulin aggregation turbidity, A650, 90 min;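 active means mean inhibition across replicates of 30% or more, whatever share of single replicates reach that level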
SMARCA2 activ: SMARCA2 (BRM) function activators, primary screen, cell-based, luminescence, high throughput | MG213 cells, MMTV-luciferase reporter, dexamethasone, overnight | activation, % at 9.1 µM | actives 1% (n = 370,000) | AID 652017, 2013; in the data active means activation above about 7.8%;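 further: 0% = vehicle wells and 100% = reference activator wells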
INS-1E GSIS act: GLuc luminescence reporter in INS-1E cells, primary screen for activators of glucose-dependent secretion of insulin; activation, % at 16.6 µM; INS-1E GLuc reporter insulin secretion, 2-3 h; AID 743287, 2014; actives 0.61% (n = 370,000);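 active means lowest replicate activation of at least 40%, so every replicate reaches that level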;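 further: 0% = median of neutral control wells and 100% = median of IBMX positive control wells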
ERp5 inh: inhibitors of ERp5-driven insulin aggregation, primary screen, biochemical, turbidity, absorbance 650 nm, single point. inhibition, % at 9.99 µM. 90 min. actives 0.05% (n = 350,000);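 active means mean replicate inhibition above about 25%, with every replicate also reaching it, limit read from the data, passing the limit was not always enough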
Yeast UUG start: modulators of yeast start codon fidelity, primary screen, whole organism, S. cerevisiae, single point, plate reader | AID 602363, 2012 | S. cerevisiae UUG-firefly luciferase reporter, luminescence/redox ratio | activity score, % at 18.7 µM | hit rate 0.13% among 350,000;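 active = replicate mean at a twofold rise or more, about +100% in these data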;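 also: firefly luciferase made from a UUG start codon reports start codon fidelity; reporter light over untreated wells divided by growth signal over untreated wells; some hits fall short of that in this replicate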
SMARCA2 act conf: SMARCA2 (BRM) function activators, confirmation, cell-based, luminescence, triplicate | shares compounds with SMARCA2 activ | AID 652260, 2013 | MG213 cells, MMTV-luciferase with dexamethasone, overnight; MG213 cells expressing E1A, Rb sequestered; DMSO wells 0%, reference activator 100% | actives 30% (n = 3,500) | activation, % at 9.1 µM;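 active means activation above its plate's cutoff, the mean activation of tested wells plus 3 SD, cut at about 7.9% in these data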
VP16 Luc act: GAL4-VP16 luciferase reporter activation, counter-screen for SMARCA2 (BRM) activator project, cell-based, pG5luc, luminescence, high throughput; shares compounds with SMARCA2 activ; HEK293 GAL4-VP16 pG5luc reporter; scaled: DMSO wells 0%, SAHA wells 100%; activation, % at 9.1 µM; actives 41% (n = 3,500);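 active means activation above the solvent-only control well mean plus 3 SD, averaged across control plates, cut at about 5.2% in these data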
NR1D1 mod conf: modulators of Rev-erb alpha DNA binding, confirmation, biochemical, FITC-DNA, fluorescence polarization, single point; actives 61% (n = 3,000); activation, % at 25 µM; AID 1259319, 2017; shares compounds with Rev-erbA mod; 90 min;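 active means activation at or above a set limit, or at least 3 SD above the negative control mean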;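 further: 0% = 35 nM protein with DMSO and 100% = 750 nM protein high control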
RORg DNA counter: modulation of RORgamma DNA binding, dose response, counter-screen for Rev-erb alpha modulator project, biochemical, fluorescence polarization, FITC-DNA. shares compounds with Rev-erbA mod. purified RORgamma protein-FITC-DNA binding. IC50, µM. actives 8% (n = 910);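 active means Compounds whose fitted half-maximal concentration for disrupting protein-DNA binding is below 10 micromolar; the record names Rev-erb in its text, so the target is in doubt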
* = called active by the depositor; i = inactive; x = no result given.

Chains of the proteins cited; added tags and fusions are not shown.
Protein disulfide-isomerase (Homo sapiens), P07237, UniProt P07237, whole entry, looked up: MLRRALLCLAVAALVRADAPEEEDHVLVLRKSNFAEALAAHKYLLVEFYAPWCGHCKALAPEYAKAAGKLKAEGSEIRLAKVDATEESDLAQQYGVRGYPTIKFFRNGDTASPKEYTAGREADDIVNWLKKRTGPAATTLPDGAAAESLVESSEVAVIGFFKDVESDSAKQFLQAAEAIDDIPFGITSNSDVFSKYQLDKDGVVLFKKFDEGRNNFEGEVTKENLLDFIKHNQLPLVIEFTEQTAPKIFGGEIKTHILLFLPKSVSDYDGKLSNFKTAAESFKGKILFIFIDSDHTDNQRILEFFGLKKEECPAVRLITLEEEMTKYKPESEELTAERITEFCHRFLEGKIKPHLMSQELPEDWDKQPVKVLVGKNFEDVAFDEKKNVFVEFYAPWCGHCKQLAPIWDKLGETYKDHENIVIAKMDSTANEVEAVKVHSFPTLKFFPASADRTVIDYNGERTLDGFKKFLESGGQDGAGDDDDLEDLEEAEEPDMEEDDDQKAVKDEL

Preview (two entries):
SMILES	Rev-erbA mod	PDI turbidity	SMARCA2 activ	INS-1E GSIS act	ERp5 inh	Yeast UUG start	NR1D1 mod conf	others
C=C1C(=O)OC2C1CCC(C)C1(O)C=CC(=O)C21C (stereo not given)	1	x	8.4*	-13	-3	-19	x	SMARCA2 act conf=15*;VP16 Luc act=2
C=C1C(=O)O[C@H]2C[C@@H](C)[C@@H]3C=CC(=O)[C@@]3(C)C[C@H]12	1	x	-8	-30	5	x	x

Results, repeating the preview:
SMILES	Rev-erbA mod	PDI turbidity	SMARCA2 activ	INS-1E GSIS act	ERp5 inh	Yeast UUG start	NR1D1 mod conf	others
C=C1C(=O)OC2C1CCC(C)C1(O)C=CC(=O)C21C (stereo not given)	1	x	8.4*	-13	-3	-19	x	SMARCA2 act conf=15*;VP16 Luc act=2
C=C1C(=O)O[C@H]2C[C@@H](C)[C@@H]3C=CC(=O)[C@@]3(C)C[C@H]12	1	x	-8	-30	5	x	x
C=C1C(=O)C(C)=C2C(=O)N3Cc4[nH]c5ccccc5c4CC3(C(=O)OC)C12 (stereo not given)	-5	x	9.2*	x	x	x	x	SMARCA2 act conf=7;VP16 Luc act=3
CC(=O)N1C[C@@H]2N[C@H](C1)C2c1ccccc1 (stereo not given in full)	x	x	x	-2	x	x	x
CN(C(=O)Oc1ccc(C(=O)c2ccc(Cl)cc2)cc1)c1ccccc1	0	13	1	-12	x	x	x
CN(C)C(=O)Oc1ccc(OC(=O)c2ccccc2)cc1	-1	-4	11*	x	x	x	x	SMARCA2 act conf=8.2*;VP16 Luc act=-1
CN1C[C@@H]2N[C@H](C1)C2c1ccc(Br)cc1 (stereo not given in full)	x	x	x	-6	x	x	x
N#Cc1ccccc1Cn1cc(C(=O)c2cccs2)c2ccccc21	25*	-1	-6	x	x	-10	10
CCCCCn1c(=O)c(C(=O)Nc2ccccc2S(N)(=O)=O)c(O)c2ccccc21	43*	1	-3	-1	-1	x	18
CCCCCCCn1c(=O)c(C(=O)Nc2cnccn2)c(O)c2ccccc21	48*	1	0	1	4	6	43*	RORg DNA counter=>40
CCCCn1c(=O)c(C(=O)Nc2ccccc2S(N)(=O)=O)c(O)c2ccccc21	3	-2	0	x	x	-21	x
CCCCCn1c(=O)c(C(=O)Nc2cnccn2)c(O)c2ccccc21	4	10	3	0	-7	-10	x
O=C(Cc1ccccn1)N1CCCCN2[C@H](CO)[C@H](c3ccc(C#Cc4ccccc4)cc3)[C@H]2C1	x	x	x	11	-5	0	x
N#Cc1cccc(-c2ccc([C@H]3[C@H]4CN(C(=O)Cc5ccncc5)CCCCN4[C@H]3CO)cc2)c1	x	x	x	-3	1	-11	x
CCOC(=O)[C@@H]1[C@@H]2NC(=O)N(C)[C@@]1(C)Oc1ccccc12	x	x	x	x	-1	-14	x
CCCCn1c(O)c(/C=N/N2CCOCC2)c(=O)[nH]c1=S	3	1	-2	6	5	-21	x
CCCCCCn1c(O)c(C=Nc2ccccc2N2CCOCC2)c(=O)[nH]c1=S	54*	5	-3	4	-3	-29	5
CCOc1cc(C)cc2oc(=O)c3c(c12)CCCC3	27*	-3	-1	9	5	-23	2
O=C1CNC[C@H]2[C@@H](c3ccc(Br)cc3)[C@@H](CO)N12	x	x	x	-1	1	x	x
CN1C(=O)C(=Cc2ccc(N3CCOCC3)o2)C(=O)N(C)C1=S	39*	-2	-1	-7	1	-12	44*	RORg DNA counter=>40

Retrieved by structure from the list above (3):
SMILES	Rev-erbA mod	PDI turbidity	SMARCA2 activ	INS-1E GSIS act	ERp5 inh	Yeast UUG start	NR1D1 mod conf	others
CCCCn1c(O)c(/C=N/N2CCOCC2)c(=O)[nH]c1=S	3	1	-2	6	5	-21	x
CN1C[C@@H]2N[C@H](C1)C2c1ccc(Br)cc1 (stereo not given in full)	x	x	x	-6	x	x	x
CCCCCCn1c(O)c(C=Nc2ccccc2N2CCOCC2)c(=O)[nH]c1=S	54*	5	-3	4	-3	-29	5

Next section
SMILES	Rev-erbA mod	PDI turbidity	SMARCA2 activ	INS-1E GSIS act	ERp5 inh	Yeast UUG start	NR1D1 mod conf	others
CN1C(=O)/C(=C\c2ccc(N3CCCCC3)o2)C(=O)NC1=S	110*	6	2	x	x	-18	132*	RORg DNA counter=i
CCN1C(=O)C(=Cc2ccc(N3CCOCC3)o2)C(=O)N(CC)C1=S	10	-4	-4	-24	-4	x	x
CCOc1ccc(N2C(=O)NC(=O)/C(=C\c3ccc(N4CCCCC4)o3)C2=O)cc1	29*	5	-2	5	x	54	33*
O=[N+]([O-])c1ccc(O)c([N+](=O)[O-])c1	-2	6	-6	-2	1	-8	x
O=c1[nH]c(O)c(N=Nc2cc([N+](=O)[O-])ccc2O)c(=O)[nH]1	20*	4	3	-6	10	x	7
COc1ccc(CCn2c(O)c(C=Nc3ccc(F)cc3)c(=O)[nH]c2=O)cc1OC	130*	0	-3	8	-1	-2	69*	RORg DNA counter=i
COC(=O)c1cccc(N=Cc2c(O)n(Cc3ccc(F)cc3)c(=O)[nH]c2=O)c1	616*	-2	-2	-3	2	-17	22*
O=C(O)c1ccc(N=Cc2c(O)n(Cc3ccc(F)cc3)c(=O)[nH]c2=O)cc1	-3	-5	3	3	0	-7	x
O=C(Cc1ccncc1)N1CCCCN2[C@@H](CO)[C@@H](c3ccc(C#CC4(O)CCCC4)cc3)[C@@H]2C1	x	x	x	18	-3	11	x
COC(=O)C1=C(c2ccc(F)cc2F)C[C@@H]2CC[C@H]1N2C(=O)NCCO	-2	-12	1	14	-8	3	x
COC(=O)C1=C(c2ccc(F)cc2F)C[C@@H]2CC[C@H]1N2C(=O)NCCCOC(C)C	19*	20	0	6	-5	-5	0
Cc1ccccc1-c1ccc([C@H]2[C@@H](CO)N3CCCCN(C(=O)Cc4ccccn4)C[C@@H]23)cc1	x	x	x	0	-2	-2	x
CN1/C(=C\C=C2C(=O)NC(=O)NC2=O)C(C)(C)c2ccccc21	20*	1	3	-3	-2	x	-1
CCOC(=O)[C@@H]1[C@@H]2NC(=S)N(C)[C@@]1(C)Oc1ccccc12	x	x	x	x	-1	2	x
O=C(/C=C/c1c[nH]c2ccccc12)c1c(O)n(CCc2ccccc2)c(=O)[nH]c1=O	39*	-2	-3	x	3	-11	3
